The structures appear in SMILES notation.

For the series the following is noted: mouse, in vivo, iv. The protocol:
Blood samples were obtained 0.5 h prior to dosing and at 0.08, 0.17, 0.33, 0.67, 1.5, 4, 8, 12, 24 hours after drug administration (n=4 per time point).
Blood samples were obtained at 0.5 h prior to the dosing and at 0.08, 0.17, 0.33, 0.67, 1.5, 4, 8, 12, and 24 h after drug administration.

In the case of `O=C(Nc1ccc([N+](=O)[O-])cc1Cl)c1cc(Cl)ccc1O` [NIC, Niclosamide], the “CL (clearance = dose/AUC-inf)” value is given as 0.89 ± 0.45 L/h (per kg BW).

The values are drawn from patent US20190083638A1, “NICLOSAMIDE-CONJUGATED POLYPEPTIDE NANOPARTICLES” (priority 2017, published 2019).
